The source of these data is patent publication US5902814A, “Spiro-Azabicyclic Compounds useful in therapy” (dated 1999).

By UniProt entry, the sequences of proteins in these tests, tags left out. Residues count along the entry.
UniProt P09483, 31-630 limits assumed: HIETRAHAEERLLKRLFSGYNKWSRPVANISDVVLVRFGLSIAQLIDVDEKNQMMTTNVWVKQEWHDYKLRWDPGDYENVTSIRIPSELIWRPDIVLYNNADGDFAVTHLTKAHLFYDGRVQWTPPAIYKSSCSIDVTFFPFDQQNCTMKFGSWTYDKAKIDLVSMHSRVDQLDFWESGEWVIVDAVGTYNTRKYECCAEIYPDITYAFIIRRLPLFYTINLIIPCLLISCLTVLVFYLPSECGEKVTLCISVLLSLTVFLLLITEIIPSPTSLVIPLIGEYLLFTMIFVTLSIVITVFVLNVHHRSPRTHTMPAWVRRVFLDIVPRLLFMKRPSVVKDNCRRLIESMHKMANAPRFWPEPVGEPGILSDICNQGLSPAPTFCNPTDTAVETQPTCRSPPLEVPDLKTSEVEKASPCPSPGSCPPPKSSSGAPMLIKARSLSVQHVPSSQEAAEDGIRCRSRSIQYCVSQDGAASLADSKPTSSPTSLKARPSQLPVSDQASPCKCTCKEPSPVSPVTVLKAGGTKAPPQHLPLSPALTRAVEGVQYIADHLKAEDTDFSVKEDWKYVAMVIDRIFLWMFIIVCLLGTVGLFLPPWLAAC
UniProt P12390, 25-500 limits assumed: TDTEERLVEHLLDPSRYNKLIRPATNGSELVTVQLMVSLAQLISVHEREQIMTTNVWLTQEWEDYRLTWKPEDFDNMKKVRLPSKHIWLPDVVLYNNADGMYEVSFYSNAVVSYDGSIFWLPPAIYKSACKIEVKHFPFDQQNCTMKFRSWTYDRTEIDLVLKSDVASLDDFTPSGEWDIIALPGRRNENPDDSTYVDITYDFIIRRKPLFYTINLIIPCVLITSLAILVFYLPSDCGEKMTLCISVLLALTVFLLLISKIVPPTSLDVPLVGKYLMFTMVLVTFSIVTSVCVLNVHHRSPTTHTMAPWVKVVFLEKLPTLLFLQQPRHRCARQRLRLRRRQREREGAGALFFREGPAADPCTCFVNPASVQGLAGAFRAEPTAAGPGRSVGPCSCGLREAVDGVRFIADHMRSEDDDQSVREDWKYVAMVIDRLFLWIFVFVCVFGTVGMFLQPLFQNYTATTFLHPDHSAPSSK

The target in the experiment is α4 nAChR subtype (Rattus norvegicus, UniProt P09483+P12390). The experiment can be described thus: Test B: [3H]-(-)-nicotine binding (affinity to the α4 nAChR subtype). As to conditions: ratio Ki Test B (α4) / Ki Test A (α7).

As for `CN1CC2(CN3CCC2CC3)OC1=O` (stereo not shown), the “Ki values in Test B relative to those given in Test A (times greater)” value is “at least 1.6 times”.
